Values joined by “and” are separate entries in the source; they are usually repeats but may differ in a detail not shown here. Equal entries are not always repeated.
Key:
TLK1 = TLK1 (Homo sapiens, UniProt Q9UKI8); assay: DSF kinase panel; conditions: 10 μM
CDK2 = CDK2 (Homo sapiens, UniProt P24941); assay: DSF kinase panel; conditions: 10 μM
p38d = p38d (Homo sapiens, UniProt O15264); assay: DSF kinase panel; conditions: 10 μM
DAPK1 = DAPK1 (Homo sapiens, UniProt P53355); assay: DSF kinase panel; conditions: 10 μM
MAP2K1 = MAP2K1 (Homo sapiens, UniProt Q02750); assay: DSF kinase panel; conditions: 10 μM
HIPK2 = HIPK2 (Homo sapiens, UniProt Q9H2X6); assay: DSF kinase panel; conditions: 10 μM
CHK2 = CHK2 (Homo sapiens, UniProt O96017); assay: DSF kinase panel; conditions: 10 μM
JNK2 = JNK2 (Homo sapiens, UniProt P45984); assay: DSF kinase panel; conditions: 10 μM
MEK4 = MEK4 (Homo sapiens, UniProt P45985); assay: DSF kinase panel; conditions: 10 μM
CSNK1E = CSNK1E (Homo sapiens, UniProt P49674); assay: DSF kinase panel; conditions: 10 μM
MAP3K5 = MAP3K5 (Homo sapiens, UniProt Q99683); assay: DSF kinase panel; conditions: 10 μM
DAPK3 = DAPK3 (Homo sapiens, UniProt O43293); assay: DSF kinase panel; conditions: 10 μM
PIM3 = PIM3 (Homo sapiens, UniProt Q86V86); assay: DSF kinase panel; conditions: 10 μM
p38a = p38a (Homo sapiens, UniProt Q16539); assay: DSF kinase panel; conditions: 10 μM
ULK3 = ULK3 (Homo sapiens, UniProt Q6PHR2); assay: DSF kinase panel; conditions: 10 μM
PAK1 = PAK1 (Homo sapiens, UniProt Q13153); assay: DSF kinase panel; conditions: 10 μM
FGFR1 = FGFR1 (Homo sapiens, UniProt P11362); assay: DSF kinase panel; conditions: 10 μM
PCTAIRE1 = PCTAIRE1 (Homo sapiens, UniProt Q00536); assay: DSF kinase panel; conditions: 10 μM
EPHB1 = EPHB1 (Homo sapiens, UniProt P54762); assay: DSF kinase panel; conditions: 10 μM
ABL1 = ABL1 (Homo sapiens, UniProt P00519); assay: DSF kinase panel; conditions: 10 μM
PHKg2 = PHKg2 (Homo sapiens, UniProt P15735); assay: DSF kinase panel; conditions: 10 μM
ATK3 = ATK3 (Homo sapiens, UniProt Q9Y243); assay: DSF kinase panel; conditions: 10 μM
MST1 = MST1 (Homo sapiens, UniProt Q13043); assay: DSF kinase panel; conditions: 10 μM
MSK1_b = MSK1_b (Homo sapiens, UniProt O75582); assay: DSF kinase panel; conditions: 10 μM
TTK = TTK (Homo sapiens, UniProt P33981); assay: DSF kinase panel; conditions: 10 μM
FGFR2 = FGFR2 (Homo sapiens, UniProt P21802); assay: DSF kinase panel; conditions: 10 μM
DMPK1 = DMPK1 (Homo sapiens, UniProt Q09013); assay: DSF kinase panel; conditions: 10 μM
EPHB3 = EPHB3 (Homo sapiens, UniProt P54753); assay: DSF kinase panel; conditions: 10 μM
EphA2 = EphA2 (Homo sapiens, UniProt P29317); assay: DSF kinase panel; conditions: 10 μM
BMX = BMX (Homo sapiens, UniProt P51813); assay: DSF kinase panel; conditions: 10 μM
Erk2 = Erk2 (Homo sapiens, UniProt P28482); assay: DSF kinase panel; conditions: 10 μM
DYRK2 = DYRK2 (Homo sapiens, UniProt Q92630); assay: DSF kinase panel; conditions: 10 μM
AurA = AurA (Homo sapiens, UniProt O14965); assay: DSF kinase panel; conditions: 10 μM
CAMK2B = CAMK2B (Homo sapiens, UniProt Q13554); assay: DSF kinase panel; conditions: 10 μM
MER = MER (Homo sapiens, UniProt Q12866); assay: DSF kinase panel; conditions: 10 μM
MST2 = MST2 (Homo sapiens, UniProt Q13188); assay: DSF kinase panel; conditions: 10 μM
AURKB = AURKB (Homo sapiens, UniProt Q96GD4); assay: DSF kinase panel; conditions: 10 μM
SRPK1 = SRPK1 (Homo sapiens, UniProt Q96SB4); assay: DSF kinase panel; conditions: 10 μM
[1] = Plasma protein binding, human; conditions: for PPB human (%): mean; for PPB human, single replicate: raw data of Table 3
[2] = Metabolic stability assay, human microsomes
[3] = Plasma protein binding, mouse; conditions: for PPB mouse, single replicate: maus, raw data of Table 3; for PPB mouse (%): mean
[4] = Plasma stability assay, mouse; conditions: 1 μg∙mL-1
[5] = Metabolic stability assay, mouse microsomes

The chains behind the UniProt entries cited, without tags or fusion partners. Where a name states a change or a piece, a line headed by the entry shows the natural chain unless it says otherwise. Residues count along the entry.
UniProt O15264: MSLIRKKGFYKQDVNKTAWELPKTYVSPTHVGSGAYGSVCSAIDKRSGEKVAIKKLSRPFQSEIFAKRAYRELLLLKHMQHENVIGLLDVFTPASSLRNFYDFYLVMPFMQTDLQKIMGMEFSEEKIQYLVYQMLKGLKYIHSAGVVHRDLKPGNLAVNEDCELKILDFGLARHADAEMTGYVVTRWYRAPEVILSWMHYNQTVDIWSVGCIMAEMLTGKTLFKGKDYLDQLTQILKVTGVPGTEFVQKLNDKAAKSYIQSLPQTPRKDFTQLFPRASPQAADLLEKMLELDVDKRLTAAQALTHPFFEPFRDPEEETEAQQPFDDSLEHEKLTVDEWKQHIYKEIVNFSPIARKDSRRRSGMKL
UniProt P53355, 13-275 limits assumed: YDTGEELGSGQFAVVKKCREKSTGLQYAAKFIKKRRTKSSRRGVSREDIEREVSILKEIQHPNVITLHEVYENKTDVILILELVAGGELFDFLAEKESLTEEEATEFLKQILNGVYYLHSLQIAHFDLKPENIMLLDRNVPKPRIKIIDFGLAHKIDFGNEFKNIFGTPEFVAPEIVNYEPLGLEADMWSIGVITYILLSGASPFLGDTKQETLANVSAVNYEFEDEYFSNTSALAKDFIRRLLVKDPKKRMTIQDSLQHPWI
UniProt O96017, 220-486 limits assumed: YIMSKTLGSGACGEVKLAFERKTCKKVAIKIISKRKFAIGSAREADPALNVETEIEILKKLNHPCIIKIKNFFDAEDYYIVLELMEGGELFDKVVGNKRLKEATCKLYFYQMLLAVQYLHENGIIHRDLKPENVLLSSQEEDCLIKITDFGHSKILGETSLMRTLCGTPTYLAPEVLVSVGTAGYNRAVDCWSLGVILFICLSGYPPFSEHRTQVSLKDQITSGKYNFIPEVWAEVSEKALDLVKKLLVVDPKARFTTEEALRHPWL
UniProt P45985, 102-367 limits assumed: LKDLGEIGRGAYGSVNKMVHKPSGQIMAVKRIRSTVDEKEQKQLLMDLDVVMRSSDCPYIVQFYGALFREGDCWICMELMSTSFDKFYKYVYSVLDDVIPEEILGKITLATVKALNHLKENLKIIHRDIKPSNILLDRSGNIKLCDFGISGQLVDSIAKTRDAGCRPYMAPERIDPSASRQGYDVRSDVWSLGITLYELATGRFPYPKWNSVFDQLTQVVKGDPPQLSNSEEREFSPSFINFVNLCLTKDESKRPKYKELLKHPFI
UniProt P49674, 1-294 limits assumed: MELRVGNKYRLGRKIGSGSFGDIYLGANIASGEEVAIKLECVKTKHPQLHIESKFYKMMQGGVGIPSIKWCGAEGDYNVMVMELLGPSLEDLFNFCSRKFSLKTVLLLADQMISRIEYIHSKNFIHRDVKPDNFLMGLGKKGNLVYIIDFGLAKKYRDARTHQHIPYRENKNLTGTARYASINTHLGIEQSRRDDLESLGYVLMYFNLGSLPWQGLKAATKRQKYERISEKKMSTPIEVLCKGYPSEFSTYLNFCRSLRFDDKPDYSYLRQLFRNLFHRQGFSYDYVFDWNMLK
UniProt O43293, 13-275 limits assumed: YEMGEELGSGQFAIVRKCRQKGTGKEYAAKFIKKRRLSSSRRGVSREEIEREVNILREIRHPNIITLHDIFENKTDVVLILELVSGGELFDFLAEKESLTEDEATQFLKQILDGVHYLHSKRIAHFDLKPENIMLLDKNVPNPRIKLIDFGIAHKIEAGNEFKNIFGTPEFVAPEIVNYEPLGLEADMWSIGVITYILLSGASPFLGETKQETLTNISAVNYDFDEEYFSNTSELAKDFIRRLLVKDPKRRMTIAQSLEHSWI
UniProt Q13153, 249-545 limits assumed: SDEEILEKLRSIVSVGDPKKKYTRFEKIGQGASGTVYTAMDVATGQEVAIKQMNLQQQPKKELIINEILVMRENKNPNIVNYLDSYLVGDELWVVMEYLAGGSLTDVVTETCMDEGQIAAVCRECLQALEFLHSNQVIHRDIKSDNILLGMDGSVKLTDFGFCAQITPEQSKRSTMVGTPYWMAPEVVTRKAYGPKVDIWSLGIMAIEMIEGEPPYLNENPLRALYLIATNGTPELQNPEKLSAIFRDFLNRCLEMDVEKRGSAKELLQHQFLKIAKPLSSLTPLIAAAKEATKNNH
UniProt P11362, 456-767 limits assumed: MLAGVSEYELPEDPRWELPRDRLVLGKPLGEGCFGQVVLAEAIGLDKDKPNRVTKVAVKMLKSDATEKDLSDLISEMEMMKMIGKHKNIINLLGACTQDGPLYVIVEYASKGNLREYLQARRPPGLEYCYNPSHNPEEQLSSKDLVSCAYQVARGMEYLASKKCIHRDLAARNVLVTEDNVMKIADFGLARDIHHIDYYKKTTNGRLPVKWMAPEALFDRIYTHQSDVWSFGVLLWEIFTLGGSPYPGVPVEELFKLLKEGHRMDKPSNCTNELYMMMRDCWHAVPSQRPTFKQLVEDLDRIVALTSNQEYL
UniProt P54762, 619-882 limits assumed: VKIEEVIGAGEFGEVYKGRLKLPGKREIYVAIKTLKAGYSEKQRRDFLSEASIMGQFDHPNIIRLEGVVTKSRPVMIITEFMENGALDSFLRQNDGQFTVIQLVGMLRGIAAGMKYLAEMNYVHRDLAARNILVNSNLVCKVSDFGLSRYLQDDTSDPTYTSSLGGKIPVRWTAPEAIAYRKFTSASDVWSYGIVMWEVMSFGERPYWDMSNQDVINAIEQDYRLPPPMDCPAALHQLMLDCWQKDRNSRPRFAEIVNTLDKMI
UniProt P00519, 242-493 limits assumed: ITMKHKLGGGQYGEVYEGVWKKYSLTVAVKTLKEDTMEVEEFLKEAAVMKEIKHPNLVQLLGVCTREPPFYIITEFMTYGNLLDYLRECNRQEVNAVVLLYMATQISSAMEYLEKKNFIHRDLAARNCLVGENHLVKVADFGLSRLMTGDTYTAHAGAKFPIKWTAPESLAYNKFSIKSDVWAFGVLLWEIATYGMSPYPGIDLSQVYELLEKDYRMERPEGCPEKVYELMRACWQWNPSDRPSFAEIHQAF
UniProt P15735, 6-293 limits assumed: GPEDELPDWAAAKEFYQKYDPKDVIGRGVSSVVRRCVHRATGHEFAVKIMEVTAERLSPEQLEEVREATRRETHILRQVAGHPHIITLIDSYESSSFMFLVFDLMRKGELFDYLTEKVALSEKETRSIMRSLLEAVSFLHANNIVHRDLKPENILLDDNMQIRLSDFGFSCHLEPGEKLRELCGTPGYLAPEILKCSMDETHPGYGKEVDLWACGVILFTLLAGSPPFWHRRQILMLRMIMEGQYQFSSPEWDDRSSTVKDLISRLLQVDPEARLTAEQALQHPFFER
UniProt Q9Y243, 148-479 limits assumed: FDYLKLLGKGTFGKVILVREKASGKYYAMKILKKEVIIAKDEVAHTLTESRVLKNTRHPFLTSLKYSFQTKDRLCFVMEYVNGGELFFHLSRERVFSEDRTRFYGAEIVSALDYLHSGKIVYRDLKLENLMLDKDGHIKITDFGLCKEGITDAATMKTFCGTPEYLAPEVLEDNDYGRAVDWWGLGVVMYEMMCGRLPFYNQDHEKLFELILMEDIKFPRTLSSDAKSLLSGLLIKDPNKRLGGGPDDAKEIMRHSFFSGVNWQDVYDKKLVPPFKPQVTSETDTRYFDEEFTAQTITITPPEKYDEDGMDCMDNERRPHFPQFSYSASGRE
UniProt Q13043, 1-311 limits assumed: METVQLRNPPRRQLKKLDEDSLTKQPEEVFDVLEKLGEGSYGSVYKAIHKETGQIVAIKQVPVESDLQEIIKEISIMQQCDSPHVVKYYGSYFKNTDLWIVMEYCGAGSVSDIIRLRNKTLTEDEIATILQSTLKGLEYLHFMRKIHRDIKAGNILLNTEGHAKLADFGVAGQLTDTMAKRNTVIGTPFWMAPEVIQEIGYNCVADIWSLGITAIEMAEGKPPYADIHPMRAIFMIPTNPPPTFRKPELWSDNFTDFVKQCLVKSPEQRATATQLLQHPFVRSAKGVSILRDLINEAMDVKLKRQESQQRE
UniProt Q09013: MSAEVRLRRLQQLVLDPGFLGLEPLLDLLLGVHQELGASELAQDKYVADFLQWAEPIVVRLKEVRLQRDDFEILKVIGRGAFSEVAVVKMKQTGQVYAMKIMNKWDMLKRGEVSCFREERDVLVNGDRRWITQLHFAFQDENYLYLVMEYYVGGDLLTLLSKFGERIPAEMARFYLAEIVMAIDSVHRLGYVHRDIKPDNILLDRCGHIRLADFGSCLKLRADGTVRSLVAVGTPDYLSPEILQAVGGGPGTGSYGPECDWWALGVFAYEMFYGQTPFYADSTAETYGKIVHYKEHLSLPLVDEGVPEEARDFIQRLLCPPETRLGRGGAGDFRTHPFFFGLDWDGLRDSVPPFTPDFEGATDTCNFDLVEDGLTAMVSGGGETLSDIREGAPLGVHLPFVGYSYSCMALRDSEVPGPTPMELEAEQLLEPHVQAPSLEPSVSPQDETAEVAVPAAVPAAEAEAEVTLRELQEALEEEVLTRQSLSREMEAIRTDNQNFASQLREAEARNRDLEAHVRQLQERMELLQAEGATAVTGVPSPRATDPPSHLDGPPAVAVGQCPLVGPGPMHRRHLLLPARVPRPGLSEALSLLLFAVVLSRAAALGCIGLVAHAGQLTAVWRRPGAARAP
UniProt P29317, 613-875 limits assumed: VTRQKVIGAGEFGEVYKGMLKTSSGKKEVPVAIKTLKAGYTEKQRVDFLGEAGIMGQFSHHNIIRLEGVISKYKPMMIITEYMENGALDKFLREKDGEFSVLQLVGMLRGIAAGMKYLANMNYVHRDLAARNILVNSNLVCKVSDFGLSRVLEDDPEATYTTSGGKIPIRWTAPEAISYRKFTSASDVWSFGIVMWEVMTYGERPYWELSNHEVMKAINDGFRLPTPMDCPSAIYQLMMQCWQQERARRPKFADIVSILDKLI
UniProt P51813, 417-675 limits assumed: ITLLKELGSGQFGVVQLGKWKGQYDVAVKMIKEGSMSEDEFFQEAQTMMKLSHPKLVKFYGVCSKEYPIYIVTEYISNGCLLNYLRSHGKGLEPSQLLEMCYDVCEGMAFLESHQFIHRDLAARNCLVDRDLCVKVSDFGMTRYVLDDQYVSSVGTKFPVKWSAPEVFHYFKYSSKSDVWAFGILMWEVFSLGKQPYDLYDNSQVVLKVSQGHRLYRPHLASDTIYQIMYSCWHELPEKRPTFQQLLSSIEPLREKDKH
UniProt P28482, 25-313 limits assumed: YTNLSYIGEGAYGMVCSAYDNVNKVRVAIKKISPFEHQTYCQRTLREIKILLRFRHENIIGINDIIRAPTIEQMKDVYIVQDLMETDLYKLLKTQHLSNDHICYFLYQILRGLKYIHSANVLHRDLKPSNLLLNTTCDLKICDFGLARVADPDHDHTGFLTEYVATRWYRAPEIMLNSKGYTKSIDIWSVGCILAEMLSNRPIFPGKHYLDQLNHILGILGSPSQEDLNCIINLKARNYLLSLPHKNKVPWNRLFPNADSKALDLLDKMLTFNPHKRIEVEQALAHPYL
UniProt Q92630, 222-535 limits assumed: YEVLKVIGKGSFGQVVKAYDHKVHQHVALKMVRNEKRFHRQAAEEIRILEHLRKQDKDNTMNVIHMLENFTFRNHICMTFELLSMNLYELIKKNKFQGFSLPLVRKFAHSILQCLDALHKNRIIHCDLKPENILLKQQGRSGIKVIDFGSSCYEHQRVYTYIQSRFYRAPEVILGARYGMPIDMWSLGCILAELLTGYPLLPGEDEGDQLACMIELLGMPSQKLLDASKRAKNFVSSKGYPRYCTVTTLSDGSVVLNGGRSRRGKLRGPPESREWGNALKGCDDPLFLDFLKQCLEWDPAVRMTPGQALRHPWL
UniProt O14965, 122-403 limits assumed: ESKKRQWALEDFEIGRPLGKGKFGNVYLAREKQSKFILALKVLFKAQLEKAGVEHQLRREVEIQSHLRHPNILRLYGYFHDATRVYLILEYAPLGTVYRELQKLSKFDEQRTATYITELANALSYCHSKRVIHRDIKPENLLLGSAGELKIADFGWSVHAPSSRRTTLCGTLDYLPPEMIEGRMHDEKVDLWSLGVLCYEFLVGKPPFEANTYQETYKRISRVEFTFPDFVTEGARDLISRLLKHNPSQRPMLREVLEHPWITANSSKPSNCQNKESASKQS
UniProt Q13554, 14-272 limits assumed: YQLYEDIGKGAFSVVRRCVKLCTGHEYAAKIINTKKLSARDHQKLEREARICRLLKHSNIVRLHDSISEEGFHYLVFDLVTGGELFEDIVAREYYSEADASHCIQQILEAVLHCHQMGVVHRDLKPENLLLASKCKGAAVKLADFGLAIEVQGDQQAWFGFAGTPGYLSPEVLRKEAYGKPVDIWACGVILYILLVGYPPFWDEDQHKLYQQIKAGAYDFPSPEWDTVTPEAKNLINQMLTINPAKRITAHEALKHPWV
UniProt Q96GD4, 77-327 limits assumed: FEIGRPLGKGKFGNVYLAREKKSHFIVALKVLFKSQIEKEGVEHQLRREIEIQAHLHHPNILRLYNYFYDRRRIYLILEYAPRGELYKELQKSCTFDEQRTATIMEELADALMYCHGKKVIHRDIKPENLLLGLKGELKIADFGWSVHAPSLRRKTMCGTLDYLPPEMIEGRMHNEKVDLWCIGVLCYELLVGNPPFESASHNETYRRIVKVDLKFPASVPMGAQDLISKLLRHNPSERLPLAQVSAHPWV

For `C[C@@H](O)CCn1cc(-c2c(Cl)cnc3[nH]ccc23)nn1`, the “ΔTm TLK1” value (TLK1) was -1.3 °C, the “ΔTm CDK2” value (CDK2) was 0.6 °C and the “ΔTm p38d” value (p38d) was 0.6 °C. The “ΔTm DAPK1” value (DAPK1) was 2.6 °C, the “ΔTm MAP2K1” value (MAP2K1) was 0.3 °C and the “ΔTm HIPK2” value (HIPK2) was 1.0 °C. For the same compound, the “ΔTm CHK2” value (CHK2) was 2.4 °C, the “ΔTm JNK2” value (JNK2) was 0.0 °C and the “ΔTm MEK4” value (MEK4) was 3.9 °C. For the same compound, the “ΔTm CSNK1E” value (CSNK1E) was 2.9 °C, the “ΔTm MAP3K5” value (MAP3K5) was 5.0 °C and the “ΔTm DAPK3” value (DAPK3) was 5.3 °C. For the same compound, the “ΔTm PIM3” value (PIM3) was 0.9 °C, the “ΔTm p38a” value (p38a) was -0.8 °C and the “ΔTm ULK3” value (ULK3) was 6.1 °C. For the same compound, the “ΔTm PAK1” value (PAK1) was -0.5 °C, the “ΔTm FGFR1” value (FGFR1) was 1.2 °C and the “ΔTm PCTAIRE1” value (PCTAIRE1) was 0.6 °C. The “ΔTm EPHB1” value (EPHB1) was 0.2 °C, the “ΔTm ABL1” value (ABL1) was 1.4 °C and the “ΔTm PHKg2” value (PHKg2) was 0.9 °C. The “ΔTm ATK3” value (ATK3) was -0.1 °C, the “ΔTm MST1” value (MST1) was 2.3 °C and the “ΔTm MSK1_b” value (MSK1_b) was 6.1 °C. For the same compound, the “ΔTm TTK” value (TTK) was 2.2 °C, the “ΔTm FGFR2” value (FGFR2) was 0.0 °C and the “ΔTm DMPK1” value (DMPK1) was 1.6 °C. The “ΔTm EPHB3” value (EPHB3) was -1.5 °C, the “ΔTm EphA2” value (EphA2) was -0.3 °C and the “ΔTm BMX” value (BMX) was 0.3 °C. For the same compound, the “ΔTm Erk2” value (Erk2) was 0.6 °C, the “ΔTm DYRK2” value (DYRK2) was 2.2 °C and the “ΔTm AurA” value (AurA) was 7.1 °C. For the same compound, the “ΔTm CAMK2B” value (CAMK2B) was 0.0 °C, the “ΔTm MER” value (MER) was 0.0 °C and the “ΔTm MST2” value (MST2) was 1.2 °C. The “ΔTm AURKB” value (AURKB) was 6.1 °C, the “ΔTm SRPK1” value (SRPK1) was 0.0 °C and the “PPB human (%)” value [1] was 24.6 ± 6.8%. The “PPB human, single replicate” value [1] was 17.5% and 25.4% and 31.0%, the “t1/2 human microsomes” value [2] was >1 h and the “PPB mouse, single replicate” value [3] was 12.6% and 9.2% and 8.5%. The “PPB mouse (%)” value [3] was 10.1 ± 2.2%, the “t1/2 mouse plasma” value [4] was > 4 h and the “t1/2 mouse microsomes” value [5] was >1 h.

With `OCCCn1cc(-c2c(Cl)cnc3[nH]ccc23)nn1` the “ΔTm TLK1” value (TLK1) was -0.9 °C, the “ΔTm CDK2” value (CDK2) was 0.9 °C and the “ΔTm p38d” value (p38d) was 0.5 °C. For the same compound, the “ΔTm DAPK1” value (DAPK1) was 2.7 °C, the “ΔTm MAP2K1” value (MAP2K1) was 0.6 °C and the “ΔTm HIPK2” value (HIPK2) was 1.3 °C. For the same compound, the “ΔTm CHK2” value (CHK2) was 2.5 °C, the “ΔTm JNK2” value (JNK2) was 0.3 °C and the “ΔTm MEK4” value (MEK4) was 4.3 °C. The “ΔTm CSNK1E” value (CSNK1E) was 3.4 °C, the “ΔTm MAP3K5” value (MAP3K5) was 6.6 °C and the “ΔTm DAPK3” value (DAPK3) was 4.7 °C. For the same compound, the “ΔTm PIM3” value (PIM3) was 1.1 °C, the “ΔTm p38a” value (p38a) was -0.6 °C and the “ΔTm ULK3” value (ULK3) was 6.1 °C. For the same compound, the “ΔTm PAK1” value (PAK1) was -0.5 °C, the “ΔTm FGFR1” value (FGFR1) was 1.1 °C and the “ΔTm PCTAIRE1” value (PCTAIRE1) was 0.0 °C. For the same compound, the “ΔTm EPHB1” value (EPHB1) was 0.3 °C, the “ΔTm ABL1” value (ABL1) was 1.5 °C and the “ΔTm PHKg2” value (PHKg2) was 1.5 °C. The “ΔTm ATK3” value (ATK3) was 0.0 °C, the “ΔTm MST1” value (MST1) was 2.3 °C and the “ΔTm MSK1_b” value (MSK1_b) was 8.0 °C. For the same compound, the “ΔTm TTK” value (TTK) was 1.6 °C, the “ΔTm FGFR2” value (FGFR2) was -0.2 °C and the “ΔTm DMPK1” value (DMPK1) was 1.5 °C. The “ΔTm EPHB3” value (EPHB3) was 0.1 °C, the “ΔTm EphA2” value (EphA2) was -0.3 °C and the “ΔTm BMX” value (BMX) was 0.4 °C. For the same compound, the “ΔTm Erk2” value (Erk2) was 0.7 °C, the “ΔTm DYRK2” value (DYRK2) was 3.1 °C and the “ΔTm AurA” value (AurA) was 7.4 °C. The “ΔTm CAMK2B” value (CAMK2B) was 0.4 °C, the “ΔTm MER” value (MER) was 0.3 °C and the “ΔTm MST2” value (MST2) was 2.1 °C. The “ΔTm AURKB” value (AURKB) was 6.1 °C, the “ΔTm SRPK1” value (SRPK1) was -0.2 °C and the “PPB human (%)” value [1] was 61.0 ± 10.8%. For the same compound, the “PPB human, single replicate” value [1] was 49.0% and 63.7% and 70.2%, the “t1/2 human microsomes” value [2] was >1 h and the “PPB mouse, single replicate” value [3] was 60.6% and 68.8% and 56.7%. The “PPB mouse (%)” value [3] was 62.0 ± 6.2%, the “t1/2 mouse plasma” value [4] was >4 h and the “t1/2 mouse microsomes” value [5] was >1 h.
